The values below are quoted from earlier work in patent US20220033460A1, “IDENTIFICATION AND USE OF T CELL EPITOPES IN DESIGNING DIAGNOSTIC AND THERAPEUTIC APPROACHES FOR COVID-19” (priority 2020, published 2022).

The target in the data set is T1, I-Ab (Mus musculus, UniProt P14434+P14483).
T1 sequence (P14483 28-265): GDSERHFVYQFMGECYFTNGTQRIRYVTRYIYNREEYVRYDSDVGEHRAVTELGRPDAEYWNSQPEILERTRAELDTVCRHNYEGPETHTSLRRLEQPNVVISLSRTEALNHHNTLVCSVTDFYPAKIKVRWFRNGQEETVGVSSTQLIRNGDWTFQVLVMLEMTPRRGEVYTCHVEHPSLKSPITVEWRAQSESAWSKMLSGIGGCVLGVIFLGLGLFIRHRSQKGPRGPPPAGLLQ
T1 sequence (P14434 24-256): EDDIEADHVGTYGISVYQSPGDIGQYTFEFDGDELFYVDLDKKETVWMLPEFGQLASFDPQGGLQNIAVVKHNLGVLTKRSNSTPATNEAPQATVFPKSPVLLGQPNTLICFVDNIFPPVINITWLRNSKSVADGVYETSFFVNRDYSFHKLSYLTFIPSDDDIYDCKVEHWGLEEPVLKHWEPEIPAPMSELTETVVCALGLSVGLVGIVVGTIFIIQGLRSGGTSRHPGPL
Conditions: I-Ab presented peptides cloned in MCR2 vector; read-out: IC50 (I-Ab binding affinity); cited from earlier work.

For orientation: IC50 means the concentration needed to halve the response being measured. For the sequence FSLSAAVKAGASLID, the IC50 is 0.638 µM.
